Where two headings read alike, the source gives them in different places.
What was measured:
MES-SA (uterine cancer) = assay: In vitro cytotoxicity against human cancer cell lines; details: read-out: In vitro cytotoxicities, IC50
MCF (breast cancer) = assay: as above; details: read-out: In vitro cytotoxicities, IC50
A-431 (vulvar cancer) = assay: as above; details: read-out: In vitro cytotoxicities, IC50
[1] = DLS, distilled water, concentrations of 0.1 to 0.5%
[2] = for Platinum concentration, Blood / Platinum concentration, Kidney / Platinum concentration, Liver / Platinum concentration, Lung / Platinum concentration, Normal muscle / Platinum concentration, Tumor tissue: Sarcoma-180 tumor-bearing rats; for Ratio of tumor/normal tissues (TTR): platinum concentration tumor tissue/normal muscle
SK-OV3 (ovarian cancer) = assay: In vitro cytotoxicity against human cancer cell lines; details: read-out: In vitro cytotoxicities, IC50
[3] = 2 hrs after tail vein injection
[4] = 24 hrs after tail vein injection

Substance	IC50 (MES-SA (uterine cancer)) [µM]	IC50 (MCF (breast cancer)) [µM]	IC50 (A-431 (vulvar cancer)) [µM]	average diameter of nanoparticles [1]	Platinum concentration, Blood [2, 3] [mg/kg]	Platinum concentration, Kidney [2, 3] [mg/kg]	Platinum concentration, Liver [2, 3] [mg/kg]	Platinum concentration, Lung [2, 3] [mg/kg]	Platinum concentration, Normal muscle [2, 3] [mg/kg]	Platinum concentration, Tumor tissue [2, 3] [mg/kg]	Ratio of tumor/normal tissues (TTR) [2, 3]	Platinum concentration, Blood [2, 4] [mg/kg]	Platinum concentration, Kidney [2, 4] [mg/kg]	Platinum concentration, Liver [2, 4] [mg/kg]	Platinum concentration, Lung [2, 4] [mg/kg]	Platinum concentration, Normal muscle [2, 4] [mg/kg]	Platinum concentration, Tumor tissue [2, 4] [mg/kg]	Ratio of tumor/normal tissues (TTR) [2, 4]	IC50 (SK-OV3 (ovarian cancer)) [µM]
tris[methoxy-poly(ethylene glycol)550]tris[cis-dicyclohexylamineplatinum(II) glycylphenylalanylleusylaspartate]cyclo-triphosphazene [Example 1]	62.6	46.7	73.1	about 200 nm	6.00	18.9	5.63	3.18	1.09	24.3	24.3/1.09 = 22.3	1.08	17.3	6.43	1.56	0.23	19.1	19.1/0.23 = 83.0	79
tris[methoxy-poly(ethylene glycol)350]tris[(cis-amminecyclohexylamineplatinum(II) glycylphenylalanyl-leusyl-malonate)]cyclotriphosphazene [Example 3]	47.1	26.6	37.2	105 nm	–	–	–	–	–	–	–	–	–	–	–	–	–	–	60.6
